# Results: patent publication US12473298B2, “Amide compounds, preparation method therefor, and use thereof in the medical field” (Shanghai Synergy Pharmaceutical Sciences Co., Ltd., priority 2019, dated 2025)
# Chains of the proteins cited; added tags and fusions are not shown.
# UniProt Q15910, whole entry: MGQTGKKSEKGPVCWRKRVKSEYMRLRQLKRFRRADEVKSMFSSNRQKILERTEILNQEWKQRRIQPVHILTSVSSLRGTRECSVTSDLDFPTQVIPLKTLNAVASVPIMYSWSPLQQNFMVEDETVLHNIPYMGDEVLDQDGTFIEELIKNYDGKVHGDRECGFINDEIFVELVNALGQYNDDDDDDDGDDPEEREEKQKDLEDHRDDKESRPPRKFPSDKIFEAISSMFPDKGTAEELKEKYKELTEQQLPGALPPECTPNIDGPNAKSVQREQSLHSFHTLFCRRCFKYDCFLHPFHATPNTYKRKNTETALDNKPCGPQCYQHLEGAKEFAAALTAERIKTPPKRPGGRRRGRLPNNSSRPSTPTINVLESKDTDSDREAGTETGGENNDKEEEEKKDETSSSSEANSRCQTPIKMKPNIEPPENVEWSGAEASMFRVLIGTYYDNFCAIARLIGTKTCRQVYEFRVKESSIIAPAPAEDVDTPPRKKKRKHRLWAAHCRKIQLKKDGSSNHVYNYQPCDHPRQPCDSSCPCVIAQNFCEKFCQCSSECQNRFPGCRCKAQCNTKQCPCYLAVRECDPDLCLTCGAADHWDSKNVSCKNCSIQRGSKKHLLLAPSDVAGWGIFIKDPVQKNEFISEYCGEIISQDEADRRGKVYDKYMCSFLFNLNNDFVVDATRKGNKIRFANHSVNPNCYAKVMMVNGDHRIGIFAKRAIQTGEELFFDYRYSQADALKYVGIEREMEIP
# Read-outs that look alike come from different tables or passages of the source.
# Tests used:
# [1] = system: human diffuse large cell lymphoma B lymphocytes (Pfeiffer cell); assay: Pfeiffer cell proliferation, Calcein AM staining; format: cell-based
# [2] = system: human diffuse large B-cell lymphoma cells (Karpas 422 cell); assay: Karpas 422 cell proliferation, Calcein AM staining; format: cell-based
# wild-type EZH2 = wild-type EZH2 (Homo sapiens (Human), UniProt Q15910); assay: radiometric assay, activity to wild-type EZH2 of PRC2; conditions: read-out: Wild-type EZH2 IC50 Nanomoles per Liter
# [3] = Homo sapiens, Pfeiffer, read-out: Pfeiffer Proliferation IC50 Nanomoles per Liter (nM), data of 14th day
# [4] = Homo sapiens, KARPAS-422, read-out: Karpas422 Proliferation IC50 Nanomoles per Liter (nM), data of 14th day
# [5] = Homo sapiens, Pfeiffer, read-out: Pfeiffer Proliferation IC50 Nanomoles per Liter (nM)
compound,measurement,setting,value
"CCN(c1cc(-c2ccc3c(c2)N(C(C)=O)CC32CCOCC2)cc(C(=O)NCc2c(OC)cc(C)[nH]c2=O)c1C)C1CCOCC1 [Example 2, 5-(1-acetyl-2′,3′,5′,6′-tetrahydrospiro[dihydroindole-3,4′-pyran]-6-yl)-3-(ethyl(tetrahydro-2H-pyran-4-yl)amino)-N-((4-methoxy-6-methyl-2-carbonyl-1,2-dihydropyridin-3-yl)methyl)-2-methylbenzamide]",IC50,[1]; [3],3.6 nM
same,IC50,[2]; [4],2.78 nM
"CCN(c1cc(-c2ccc3c(c2)NC(=O)C32CCN(C)CC2)cc(C(=O)NCc2c(OC)cc(C)[nH]c2=O)c1C)C1CCOCC1 [Example 4, 3-(ethyl(tetrahydro-2H-pyran-4-yl)amino)-N-((4-methoxy-6-methyl-2-oxo-1,2-dihydropyridin-3-yl)methyl)-2-methyl-5-(1′-methyl-2-oxospiro[dihydroindole-3,4′-piperidine]-6-yl)benzamide]",IC50,"[1]; read-out: Pfeiffer Proliferation IC50 Nanomoles per Liter, data of 14th day",3.12 nM
same,IC50,"[2]; read-out: Karpas422 Proliferation IC50 Nanomoles per Liter, data of 14th day",2.87 nM
"CCN(c1cc(-c2ccc3c(c2)NCC32CCOCC2)cc(C(=O)NCc2c(OC)cc(C)[nH]c2=O)c1C)C1CCNCC1 [Example 5, 3-(ethyl(piperidin-4-yl)amino)-N-((4-methoxy-6-methyl-2-oxo-1,2-dihydropyridin-3-yl)methyl)-2-methyl-5-(2′,3′,5′,6′-tetrahydrospiro[indoline-3,4′-pyran]-6-yl)benzamide]",IC50,[1]; [3],0.63 nM
same,IC50,[2]; [4],0.91 nM
"CCN(c1cc(-c2ccc3c(c2)NCC32CCOCC2)cc(C(=O)NCc2c(C)cc(C)[nH]c2=O)c1C)C1CCNCC1 [Example 6, N-((4,6-dimethyl-2-oxo-1,2-dihydropyridin-3-yl)methyl)-3-(ethyl(piperidin-4-yl)amino)-2-methyl-5-(2′,3′,5′,6′-tetrahydrospiro[dihydroindole-3,4′-pyran]-6-yl)benzamide]",IC50,wild-type EZH2,0.75 nM
"CCN(c1cc(-c2ccc3c(c2)N(C)C(=O)C32CCOCC2)c(Cl)c(C(=O)NCc2c(C)cc(C)[nH]c2=O)c1C)C1CCOCC1 [Example 10, 2-chloro-N-((4,6-dimethyl-2-oxo-1,2-dihydropyridin-3-yl)methyl)-5-(ethyl(tetrahydro-2H-pyran-4-yl)amino)-6-methyl-3-(1-methyl-2-oxo-2′,3′,5′,6′-tetrahydrospiro[dihydroindole-3,4′-pyran]-6-yl)benzamide]",IC50,[2]; [4],1.28 nM
"CCN(c1cc(-c2ccc3c(c2)N(C(C)C)CC32CCOCC2)c(Cl)c(C(=O)NCc2c(C)cc(C)[nH]c2=O)c1C)C1CCOCC1 [Example 11, 2-chloro-N-((4,6-dimethyl-2-carbonyl-1,2-dihydropyridin-3-yl)methyl)-5-(ethyl(tetrahydro-2H-pyran-4-yl)amino)-3-(1-isopropyl-2′,3′,5′,6′-tetrahydrospiro[dihydroindole-3,4′-pyran]-6-yl)-6-methylbenzamide]",IC50,[1]; [3],1.26 nM
same,IC50,[2]; [4],1.67 nM
"CCN(c1cc(-c2cc3c(cc2F)CCC32CCOCC2)cc(C(=O)NCc2c(OC)cc(C)[nH]c2=O)c1C)C1CCOCC1 [Example 16, 3-(ethyl(tetrahydro-2H-pyran-4-yl)amino)-5-(5-fluoro-2,2′,3,3′,5′,6′-hexahydrospiro[indene-1,4′-pyran]-6-yl)-N-((4-methoxy-6-methyl-2-carbonyl-1,2-dihydropyridin-3-yl)methyl)-2-methylbenzamide]",IC50,[2]; [4],0.98 nM
"CCN(c1cc(-c2ccc3c(c2)N(C)CC32CCN(CC(F)(F)F)CC2)cc(C(=O)NCc2c(C)cc(C)[nH]c2=O)c1C)C1CCOCC1 [Example 22, N-((4,6-dimethyl-2-carbonyl-1,2-dihydropyridin-3-yl)methyl)-3-(ethyl(tetrahydro-2H-pyran-4-yl)amino)-2-methyl-5-(1-methyl-1′-(2,2,2-trifluoroethyl)spiro[dihydroindole-3,4′-piperidine]-6-yl)benzamide]",IC50,[1]; [3],1.64 nM
same,IC50,[2]; [4],2.54 nM
"CCN(c1cc(-c2cc3c(cc2F)CCC32CCOCC2)cc(C(=O)NCc2c(C)cc(C)[nH]c2=O)c1C)C1CCOCC1 [Example 24, N-((4,6-dimethyl-2-carbonyl-1,2-dihydropyridin-3-yl)methyl)-3-(ethyl(tetrahydro-2H-pyran-4-yl)amino)-5-(5-fluoro-2,2′,3,3′,5′,6′-hexahydrospiro[indene-1,4′-pyran]-6-yl)-2-methylbenzamide]",IC50,wild-type EZH2,0.75 nM
CCN(c1cc(-c2ccc3c(c2)N(C(C)C)CC32CCOCC2)cc(C(=O)NCc2c(C)cc(C)[nH]c2=O)c1C)C1CCOCC1 [Example 25],IC50,[1]; [5],0.81 nM
"CCN(c1cc(-c2ccc3c(c2)N(C)C(=O)C32CCN(CC(F)(F)F)CC2)cc(C(=O)NCc2c(C)cc(C)[nH]c2=O)c1C)C1CCOCC1 [Example 27, N-((4,6-dimethyl-2-carbonyl-1,2-dihydropyridin-3-yl)methyl)-3-(ethyl(tetrahydro-2H-pyran-4-yl)amino)-2-methyl-5-(1-methyl-2-carbonyl-1′-(2,2,2-trifluoroethyl)spiro[dihydroindole-3,4′-piperidine]-6-yl)benzamide]",IC50,[1]; [3],2.26 nM
same,IC50,[2]; [4],2.74 nM
"CCN(c1cc(-c2ccc3c(c2)N(C)C(=O)C32CCNCC2)cc(C(=O)NCc2c(OC)cc(C)[nH]c2=O)c1C)C1CCOCC1 [Example 34, 3-(ethyl(tetrahydro-2H-pyran-4-yl)amino)-N-((4-methoxy-6-methyl-2-carbonyl-1,2-dihydropyridin-3-yl)methyl)-2-methyl-5-(1-methyl-2-carbonylspiro[dihydroindole-3,4′-piperidine]-6-yl)benzamide]",IC50,[1]; [3],0.59 nM
same,IC50,[2]; [4],1.65 nM
"CCN1CC2(CCOCC2)c2ccc(-c3cc(C(=O)NCc4c(C)cc(C)[nH]c4=O)c(C)c(N(CC)C4CCOCC4)c3)cc21 [Example 38, N-((4,6-dimethyl-2-oxo-1,2-dihydropyridin-3-yl)methyl)-3-(ethyl(tetrahydro-2H-pyran-4-yl)amino)-5-(1-ethyl-2′,3′,5′,6′-tetrahydrospiro[dihydroindole-3,4′-pyran]-6-yl)-2-methylbenzamide]",IC50,[1]; [3],1.15 nM
same,IC50,[2]; [4],2.42 nM
"CCN(c1cc(-c2ccc3c(c2)N(CC(F)(F)F)C(=O)C32CCNCC2)cc(C(=O)NCc2c(OC)cc(C)[nH]c2=O)c1C)C1CCOCC1 [Example 41, 3-(ethyl(tetrahydro-2H-pyran-4-yl)amino)-N-((4-methoxy-6-methyl-2-oxo-1,2-dihydropyridin-3-yl)methyl)-2-methyl-5-(2-oxo-1-(2,2,2-trifluoroethyl)spiro[dihydroindole-3,4′-piperidine]-6-yl)benzamide]",IC50,[1]; [3],1.87 nM
same,IC50,[2]; [4],3.5 nM
"CCN(c1cc(-c2ccc3c(c2)N(C(C)C)C(=O)C32CCOCC2)c(Cl)c(C(=O)NCc2c(C)cc(C)[nH]c2=O)c1C)C1CCOCC1 [Example 46, 2-chloro-N-((4,6-dimethyl-2-oxo-1,2-dihydropyridin-3-yl)methyl)-5-(ethyl(tetrahydro-2H-pyran-4-yl)amino)-3-(1-isopropyl-2-oxo-2′,3′,5′,6′-tetrahydrospiro[dihydroindole-3,4′-pyran]-6-yl)-6-methylbenzamide]",IC50,[1]; [3],4.79 nM
same,IC50,[2]; [4],5.32 nM
"CCN(c1cc(-c2ccc3c(c2)N(C(C)C)C(=O)C32CCOCC2)cc(C(=O)NCc2c(OC)cc(C)[nH]c2=O)c1C)C1CCOC(C)(C)C1 (stereo not drawn) [Example 64, 3-((2,2-dimethyltetrahydro-2H-pyran-4-yl)(ethyl)amino)-5-(1-isopropyl-2-carbonyl-2′,3′,5′,6′-tetrahydrospiro[dihydroindole-3,4′-pyran]-6-yl)-N-((4-methoxy-6-methyl-2-carbonyl-1,2-dihydropyridin-3-yl)methyl)-2-methylbenzamide]",IC50,[1]; [5],0.75 nM
"CCN(c1cc(-c2ccc3c(c2)NC(=O)C32CCOCC2)cc(C(=O)NCc2c(C)cc(C)[nH]c2=O)c1C)C1CCNCC1 [Example 76, N-((4,6-dimethyl-2-oxo-1,2-dihydropyridin-3-yl)methyl)-3-(ethyl(piperidin-4-yl)amino)-2-methyl-5-(2-oxo-2′,3′,5′,6′-tetrahydrospiro[dihydroindole-3,4′-pyran]-6-yl)benzamide]",IC50,[1]; [3],0.1 nM
same,IC50,[2]; [4],0.15 nM
"CCN(c1cc(-c2ccc3c(c2)NC(=O)C32CCN(C)CC2)cc(C(=O)NCc2c(OC)cc(C)[nH]c2=O)c1C)C1CCOCC1 [Example 114, 3-(Ethyl(tetrahydro-2H-pyran-4-yl)amino)-N-((4-methoxy-6-methyl-2-oxo-1,2-dihydropyridin-3-yl)methyl)-2-methyl-5-(1′-methyl-2-oxospiro[dihydroindole-3,4′-piperidine]-6-yl)benzamide]",IC50,[1]; [3],3.34 nM
same,IC50,[2]; [4],4.61 nM
"CCN(c1cc(-c2ccc3c(c2)NC(=O)C32CCOCC2)cc(C(=O)NCc2c(OC)cc(C)[nH]c2=O)c1C)C1CCOCC1 [Example 115, 3-(Ethyl(tetrahydro-2H-pyran-4-yl)amino)-N-((4-methoxy-6-methyl-2-oxo-1,2-dihydropyridin-3-yl)methyl)-2-methyl-5-(2-oxo-2′,3′,5′,6′-tetrahydrospiro[dihydroindole-3,4′-pyran]-6-yl)benzamide]",IC50,[1]; [3],2.45 nM
same,IC50,[2]; [4],5.77 nM
"CCN(c1cc(-c2ccc3c(c2)NC(=O)C32CCNCC2)cc(C(=O)NCc2c(OC)cc(C)[nH]c2=O)c1C)C1CCNCC1 [Example 116, 3-(Ethyl(piperidin-4-yl)amino)-N-((4-methoxy-6-methyl-2-oxo-1,2-dihydropyridin-3-yl)methyl)-2-methyl-5-(2-oxospiro[indole-3,4′-piperidine]-6-yl)benzamide]",IC50,[1]; [3],1.69 nM
same,IC50,[2]; [4],1.84 nM
"N-((4,6-dimethyl-2-oxo-1,2-dihydropyridin-3-yl)methyl)-3-(ethyl(tetrahydro-2H-pyran-4-yl)amino)-5-(1-isopropyl-2′,3′,5′,6′-tetrahydrospiro[dihydroindole-3,4′-pyran]-6-yl)-2-methylbenzamide [Example 65]",IC50,"[1]; data of 14th day, read-out: Pfeiffer Proliferation IC50 Nanomoles per Liter",1.87 nM
same,IC50,"[2]; data of 14th day, read-out: Karpas422 Proliferation IC50 Nanomoles per Liter",3.34 nM
